Results on two molecules are retold here after patent US12187720B2, “Compounds for treatment of cancer” (ONCTERNAL THERAPEUTICS, INC., priority 2010, dated 2025).

One data set has as its system HUVECs. Description: Endothelial cell growth inhibition (SRB), HUVEC. The data set is classed as cell-based, human.
Data set [1] is described as follows: Pharmacokinetic study in Sprague-Dawley rats. Conditions: rat, PO 10 mg/kg.
The nature of another data set: in vivo. Conditions: female, Sprague-Dawley, rat, po, 10 mg/kg.

Regarding `COc1cc(C(=O)c2csc(Nc3ccc4[nH]ccc4c3)n2)cc(OC)c1OC` [compound 55, (2-(1H-INDOL-5-YLAMINO)THIAZOL-4-YL)(3,4,5-TRIMETHOXYPHENYL)METHANONE], the “times more active against endothelial cells than against cancer cells” value in the data set on HUVECs worked out at 3 times.
The term Cmax denotes the maximum level reached in the sampled fluid or tissue. Consider `COc1cc(C(=O)c2csc(-c3ccccc3)n2)cc(OC)c1OC` [1h, (2-Phenyl-thiazol-4-yl)-(3,4,5-trimethoxy-phenyl)-methanone], for which the RatPK_PO10mgk_Cmax in data set [1] turned out to be 212 ng/mL. Further, the Cmax in the data set “in vivo” turned out to be 212 ng/mL.
